Legend:
melanotic melanoma B16 = experiment: In vivo antitumor activity against B16 melanoma (ip); settings: Q4D × 3
[1] = test system: lymphocytic leukemia P388; experiment: In vivo antitumor activity against P388 leukemia (ip)

C/C(=C\C(C)C(=O)CC(O)CC1CC(=O)NC(=O)C1)C1OC(=O)/C=C/CC/C=C/C=C\C1C (stereo not drawn) [BU-4146T]
Body weight change on day 4 (melanotic melanoma B16; 0.25 mg/kg/day ip): +1.0 g | MST (median survival times) (melanotic melanoma B16; 0.25 mg/kg/day ip): 17.0 days | T/C (melanotic melanoma B16; 0.25 mg/kg/day ip): 117% | Body weight change on day 4 (melanotic melanoma B16; 1 mg/kg/day ip): +0.3 g | MST (median survival times) (melanotic melanoma B16; 1 mg/kg/day ip): 17.5 days | T/C (melanotic melanoma B16; 1 mg/kg/day ip): 121% | Body weight change on day 4 (melanotic melanoma B16; 2 mg/kg/day ip): +0.8 g | MST (median survival times) (melanotic melanoma B16; 2 mg/kg/day ip): 21.0 days | Body weight change on day 4 (melanotic melanoma B16; 4 mg/kg/day ip): -1.3 g | MST (median survival times) (melanotic melanoma B16; 4 mg/kg/day ip): 12.5 days | T/C (melanotic melanoma B16; 4 mg/kg/day ip): 86% | Body weight change on day 4 ([1]; 0.063 mg/kg/day ip, Q1D × 9): +1.5 g | MST (median survival time) ([1]; 0.063 mg/kg/day ip, Q1D × 9): 11.0 days | T/C ([1]; 0.063 mg/kg/day ip, Q1D × 9): 110% | Body weight change on day 4 ([1]; 0.13 mg/kg/day ip, Q1D × 9): 0.8 g | MST (median survival time) ([1]; 0.13 mg/kg/day ip, Q1D × 9): 12.0 days | T/C ([1]; 0.13 mg/kg/day ip, Q1D × 9): 120% | Body weight change on day 4 ([1]; 0.25 mg/kg/day ip, Q1D × 9): +0.8 g | MST (median survival time) ([1]; 0.25 mg/kg/day ip, Q1D × 9): 14.0 days | Body weight change on day 4 ([1]; 0.25 mg/kg/day ip, Q4D × 3): +0.5 g | MST (median survival time) ([1]; 0.25 mg/kg/day ip, Q4D × 3): 11.5 days | T/C ([1]; 0.25 mg/kg/day ip, Q4D × 3): 105% | Body weight change on day 4 ([1]; 0.5 mg/kg/day ip, Q1D × 9): +0.5 g | MST (median survival time) ([1]; 0.5 mg/kg/day ip, Q1D × 9): 13.5 days | Body weight change on day 4 ([1]; 1 mg/kg/day ip, Q1D × 1): +0.8 g | MST (median survival time) ([1]; 1 mg/kg/day ip, Q1D × 1): 12.5 days | T/C ([1]; 1 mg/kg/day ip, Q1D × 1): 114% | Body weight change on day 4 ([1]; 1 mg/kg/day ip, Q1D × 9): +0.5 g | MST (median survival time) ([1]; 1 mg/kg/day ip, Q1D × 9): 14.5 days | T/C ([1]; 1 mg/kg/day ip, Q1D × 9): 145% | Body weight change on day 4 ([1]; 1 mg/kg/day ip, Q4D × 3): +0.8 g | MST (median survival time) ([1]; 1 mg/kg/day ip, Q4D × 3): 15.0 days | Body weight change on day 4 ([1]; 2 mg/kg/day ip, Q1D × 1): +0.3 g | MST (median survival time) ([1]; 2 mg/kg/day ip, Q1D × 1): 13.0 days | T/C ([1]; 2 mg/kg/day ip, Q1D × 1): 118% | Body weight change on day 4 ([1]; 2 mg/kg/day ip, Q4D × 3): 0.0 g | MST (median survival time) ([1]; 2 mg/kg/day ip, Q4D × 3): 15.0 days | Body weight change on day 4 ([1]; 4 mg/kg/day ip, Q1D × 1): -1.5 g | MST (median survival time) ([1]; 4 mg/kg/day ip, Q1D × 1): 15.0 days | Body weight change on day 4 ([1]; 4 mg/kg/day ip, Q4D × 3): -1.0 g | MST (median survival time) ([1]; 4 mg/kg/day ip, Q4D × 3): 12.0 days | T/C ([1]; 4 mg/kg/day ip, Q4D × 3): 109% | Body weight change on day 4 ([1]; 8 mg/kg/day ip, Q1D × 1): -1.5 g | MST (median survival time) ([1]; 8 mg/kg/day ip, Q1D × 1): 8.0 days | T/C ([1]; 8 mg/kg/day ip, Q1D × 1): 73% | activity in terms of minimum effective dose ([1]; Q1D × 9 schedule, P388, versus mitomycin C): as active as mitomycin C

CO[C@@]12[C@H](COC(N)=O)C3=C(C(=O)C(C)=C(N)C3=O)N1C[C@@H]1N[C@@H]12 [Mitomycin C, reference compound]
MST (median survival times) (melanotic melanoma B16; 0.25 mg/kg/day ip): 14.5 days | T/C (melanotic melanoma B16; 0.25 mg/kg/day ip): 100% | Body weight change on day 4 (melanotic melanoma B16; 1 mg/kg/day ip): +0.8 g | MST (median survival times) (melanotic melanoma B16; 1 mg/kg/day ip): 20.0 days | Body weight change on day 4 ([1]; 0.063 mg/kg/day ip, Q1D × 9): +0.8 g | Body weight change on day 4 ([1]; 0.25 mg/kg/day ip, Q1D × 9): +1.0 g | Body weight change on day 4 ([1]; 0.5 mg/kg/day ip, Q1D × 9): 0.0 g | Body weight change on day 4 ([1]; 1 mg/kg/day ip, Q4D × 3): +0.8 g | Body weight change on day 4 ([1]; 2 mg/kg/day ip, Q4D × 3): 0.0 g | Body weight change on day 4 ([1]; 4 mg/kg/day ip, Q4D × 3): 0.0 g | MST (median survival time) ([1]; 4 mg/kg/day ip, Q4D × 3): 20.0 days

— patent US5002959A, “BU-4146T antibiotic” (Bristol-Myers Squibb Company, priority 1989, dated 1991)
